Experimental data from ChEMBL document CHEMBL4014343 (J Med Chem, 2017).

Chains of the proteins cited; added tags and fusions are not shown.
UniProt Q00535, whole entry: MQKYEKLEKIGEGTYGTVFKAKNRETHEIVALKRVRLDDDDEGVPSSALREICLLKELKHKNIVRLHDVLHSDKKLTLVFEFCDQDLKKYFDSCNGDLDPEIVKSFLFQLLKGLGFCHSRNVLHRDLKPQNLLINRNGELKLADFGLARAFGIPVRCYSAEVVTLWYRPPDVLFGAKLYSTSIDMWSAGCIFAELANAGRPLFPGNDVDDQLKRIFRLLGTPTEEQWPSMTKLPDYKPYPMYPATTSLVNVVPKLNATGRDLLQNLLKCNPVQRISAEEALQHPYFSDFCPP

Biological target: Cyclin-dependent kinase 5/CDK5 activator 1 (Homo sapiens, UniProt Q00535)

O=C1Nc2ccccc2/C1=C1/Nc2ccccc2C1=O [INDIRUBIN]
IC50: 5.5 µM
